## Antibody variant affinities, Ab-14 light chain, assay B

Antigen: PDVDLGDISGINAS, a 14-residue peptide of the SARS-CoV-2 spike HR2 region.

Parent: Ab-14, a human scFv built as VH, a 15-residue (Gly4Ser)3 linker, VL. Only the CDRs of the light chain vary.
VH: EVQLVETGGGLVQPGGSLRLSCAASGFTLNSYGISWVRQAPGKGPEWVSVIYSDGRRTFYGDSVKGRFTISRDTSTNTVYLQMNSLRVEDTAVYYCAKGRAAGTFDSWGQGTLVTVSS
VL: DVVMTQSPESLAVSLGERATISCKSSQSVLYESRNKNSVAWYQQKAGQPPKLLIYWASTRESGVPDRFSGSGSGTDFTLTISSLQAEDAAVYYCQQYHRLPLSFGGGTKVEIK

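The starting antibody came from a phage panning campaign against this peptide. The variants were designed computationally from a first round of random CDR variants and then made and measured. Their group label is 14L_En_Gibbs (En: ensemble of fine-tuned language models; Gibbs: Gibbs sampling). Affinity was read by AlphaSeq, a pooled yeast mating assay with surface-displayed partners. The frequency of each diploid, read from paired DNA barcodes, reflects how well the two displayed proteins bind. Each replicate has its own calibration line, from reference interactions of the BCL2 family. The assay was run in six technical replicates.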

Variants are written as CDR1, CDR2 and CDR3 of the light chain (limits as in the source). Parent: KSSQSVLYESRNKNSVA, WASTRES, QQYHRLPLS. The read-out is the apparent dissociation constant on a log10 scale (nM): the lower, the stronger. Replicates are averaged; those with no signal do not enter the mean. An entry "ND" has no value in the source: the pair was not observed among the diploids in that replicate. This suggests poor binding but is not conclusive. The authors' rule: three or more of the six replicates give a measured affinity, fewer mean a poor binder. Values of this round are not directly comparable with the first-round values of the same sequences. Of ten entries with the parent sequence, four were seen in most replicates (averages 0.34 to 2.37), three in one and three in none, so single entries are noisy. As a blank, each scFv also met three strains without target: over all light chain designs, 4% of these pairings were detected, typically at 2.64 and seldom below 1.59. The control count says in how many pairings with the empty strains this scFv gave a signal, with their mean in brackets.

| # | CDR-L1 | CDR-L2 | CDR-L3 | replicates, log10 nM | log10 Kd (nM), mean | empty controls |
|---|---|---|---|---|---|---|
| 1 | HIELGTWGVQKFDSSVA | HASQRQE | QQYAQLPLT | ND / ND / ND / ND / ND / ND | ND | 0/18 |
| 2 | KIQHQHVGNWKTMNNIA | QGDQRCQ | QSYDRLPLS | 0.99 / 0.36 / 0.47 / 0.63 / 0.43 / 0.37 | 0.54 | 0/18 |
| 3 | KIQQTHVGNNKKMEAIA | QGDQRCH | QSYDRLPLS | 1.12 / 1.15 / 0.96 / 1.05 / 1.21 / 0.90 | 1.07 | 0/18 |
| 4 | MISLCQNGYYDQNNSIA | DRNERAM | QQYGRLPLV | ND / ND / ND / ND / ND / ND | ND | 1/18 (3.61) |
| 5 | MGLESYQQGVHEMNNIA | EGDQKLD | QQYYRLPLL | 0.70 / 0.39 / ND / 0.76 / -0.50 / 0.99 | 0.47 | 0/18 |
| 6 | MIDQASMTEWDKGNSVA | EENHKYN | QQYFQLPLI | 1.48 / 1.11 / 1.59 / 1.79 / 1.45 / 1.69 | 1.52 | 0/18 |
| 7 | HLELEYMQMMKDHNSIA | DTESKTR | QQYFRLPIS | 0.97 / 0.63 / 0.83 / 0.50 / 0.58 / 0.60 | 0.68 | 2/18 (2.63) |
| 8 | AEDHQEGSGKNSDANVA | QAEQRAP | QQYHHLPLM | 1.07 / 1.48 / ND / 0.58 / ND / 1.13 | 1.07 | 0/18 |
| 9 | SIETLSQGMRLNWSAVA | EAHTLVQ | QYYARLPLS | ND / 2.14 / ND / ND / ND / ND | 2.14 | 0/18 |
| 10 | HIDILNRGETLKKDDIA | NADHREQ | QQYFHLPLS | 0.08 / 0.20 / -0.03 / 0.02 / -0.04 / 0.41 | 0.11 | 3/18 (2.90) |
| 11 | ELFFNDFQLAIQSNSIA | HASLREV | QQYAHLPLV | ND / 1.98 / 1.84 / ND / 1.47 / 1.40 | 1.67 | 1/18 (1.38) |
| 12 | QLSLMENHMGDRMWSVA | DANQAKT | QDYFRLPLM | ND / ND / ND / ND / 2.67 / 1.60 | 2.14 | 0/18 |
| 13 | KFSYEYEMVNTAKESIA | DAHTVQM | QQYSRLPLA | 0.49 / 0.51 / 0.28 / 0.26 / 0.22 / 0.31 | 0.35 | 1/18 (3.23) |
| 14 | QLEVFPLQAGSTTQAIA | DASHRTP | QQYSRLPLV | 0.10 / -0.03 / -0.11 / -0.14 / 0.12 / 0.05 | 0.00 | 1/18 (2.47) |
| 15 | KLRNDFMESKQNQSNIA | GHHESIK | QQYSMLPLS | 1.37 / 1.91 / 2.04 / 1.85 / 1.92 / 1.67 | 1.79 | 1/18 (2.33) |
| 16 | QINHQGLSANLNSKNVA | AKNLRVD | QQYNRLPLS | 0.00 / -0.26 / -0.26 / -0.31 / -0.27 / -0.16 | -0.21 | 2/18 (2.03) |
| 17 | RVTILSDPYMENRNAIA | QTSLRAH | QQYQMLPLT | 0.85 / 0.64 / 0.25 / 0.75 / 0.31 / 1.05 | 0.64 | 0/18 |
| 18 | AISMHAFYGYRDENGIA | GADVRAK | QQYYRLPLT | 0.62 / 0.60 / 1.24 / 0.51 / 0.18 / 0.40 | 0.59 | 0/18 |
| 19 | QLSVFELQGMSWMQSIA | QASHRTE | QQFSRLPLV | 0.48 / 0.17 / 0.09 / 1.60 / 0.39 / 0.70 | 0.57 | 0/18 |
| 20 | KLYSAKQGDIAQMQNIA | AADVLTQ | QQYNKLPLS | 0.21 / 0.75 / 0.22 / 0.06 / -0.04 / 0.45 | 0.27 | 0/18 |
| 21 | KLQLQPRDGAQAQSSIA | DVSEADM | QQYARLPLH | 2.41 / 1.63 / 1.55 / 1.94 / 2.43 / 1.78 | 1.96 | 3/18 (3.62) |
| 22 | MISNEQDYGYSATNSVA | DVTEKCN | QQYKRLPLT | 0.59 / 1.30 / ND / -0.35 / 0.44 / 1.40 | 0.68 | 0/18 |
| 23 | RIQMQFTWPGNARQNVA | EIQTAID | QQYAHLPLS | ND / 1.17 / ND / ND / ND / 4.18 | 2.67 | 0/18 |
| 24 | KMTKAEQGAGSHQQNIA | DSNKITD | QQYYRLPLS | 0.08 / -0.04 / -0.08 / -0.22 / -0.23 / -0.01 | -0.08 | 2/18 (3.15) |
| 25 | KIRWQQYSQSEMEDNIA | QESTRHQ | QQYFRLPLS | ND / ND / 2.43 / ND / 0.69 / 1.65 | 1.59 | 0/18 |
| 26 | KLSNWQFDSYGNKESVA | ENEATSN | QQYSLLPLS | ND / ND / ND / ND / ND / ND | ND | 0/18 |
| 27 | KFQNGLERGNQGYSAVA | DVTEKGA | QQYLQLPLM | 1.13 / 0.57 / 0.76 / 0.49 / 1.00 / 1.58 | 0.92 | 0/18 |
| 28 | RFPEHLLMLESKIRNIA | NATKTME | QQYFRLPLV | 0.83 / 0.79 / 0.97 / 0.77 / 1.07 / 1.36 | 0.97 | 1/18 (2.95) |
| 29 | KLSPWYFDSYGNYQSVA | ENEATSN | QQYSLLPLS | ND / ND / 1.80 / ND / 0.79 / 1.63 | 1.41 | 0/18 |
| 30 | QLEFRDVQGTANWHAIA | EASQLGQ | QQYFHLPLG | ND / 3.00 / 1.63 / ND / 1.47 / 1.87 | 1.99 | 1/18 (3.08) |
| 31 | NLAMALEQGILIKNNIA | SDNLREN | QQYERLPLI | 2.19 / 1.08 / 1.98 / 0.99 / 1.02 / 1.31 | 1.43 | 0/18 |
| 32 | KLWLAMDMFQGEANAVA | DQQLTRD | QQYARLPLS | ND / 1.89 / 1.77 / 2.30 / ND / 2.44 | 2.10 | 0/18 |
| 33 | SMEWEEWNGQSKKHNIA | ADTKVLE | QQYFRLPFY | 1.55 / ND / ND / 3.38 / 1.06 / 2.53 | 2.13 | 0/18 |
| 34 | KVSDPMVEWIANQSAVA | DHADTQH | QQYARLPLS | ND / ND / ND / ND / 3.07 / ND | 3.07 | 0/18 |
| 35 | QIDHPELSFQQNQYSIA | NASQSLD | QQYAQLPLM | 0.62 / 0.86 / 0.47 / 0.63 / 0.57 / 0.76 | 0.65 | 2/18 (2.32) |
| 36 | QLELVQSNDTILENNVA | HAEVSGR | QQYSQLPLI | 2.58 / ND / ND / ND / ND / ND | 2.58 | 1/18 (2.78) |
| 37 | NMHNMCYQYENYGNSIA | QAQLREN | QQYYRLPFT | 0.93 / 0.37 / 0.33 / 0.11 / 0.23 / 0.32 | 0.38 | 2/18 (1.86) |
| 38 | TLVDWIQGGMWAKKNVA | DESTRVN | QQYYRLPLS | 0.80 / 0.21 / 0.15 / 0.37 / 0.90 / 0.29 | 0.45 | 0/18 |
| 39 | KITWSQYNWTSNYQAVA | EQNMRAT | QSYYRLPFS | 0.63 / 1.15 / 0.69 / 1.06 / 1.25 / 1.21 | 1.00 | 1/18 (2.84) |
| 40 | NISIEDYPENNFANNVA | NTDCRCD | QQYFMLPLM | 2.17 / ND / 2.17 / 3.03 / 2.20 / 2.39 | 2.39 | 1/18 (3.36) |
| 41 | MLTMFANENQGWSNNIA | DTNNLNE | QQYSRLPFM | 0.93 / 0.87 / 1.04 / 1.22 / 1.13 / 1.13 | 1.05 | 0/18 |

A selection of 3 entries from above:

CDR-L1,CDR-L2,CDR-L3,"replicates, log10 nM","log10 Kd (nM), mean",empty controls
KIRWQQYSQSEMEDNIA,QESTRHQ,QQYFRLPLS,ND / ND / 2.43 / ND / 0.69 / 1.65,1.59,0/18
HIDILNRGETLKKDDIA,NADHREQ,QQYFHLPLS,0.08 / 0.20 / -0.03 / 0.02 / -0.04 / 0.41,0.11,3/18 (2.90)
QLSVFELQGMSWMQSIA,QASHRTE,QQFSRLPLV,0.48 / 0.17 / 0.09 / 1.60 / 0.39 / 0.70,0.57,0/18

Data: MIT Lincoln Laboratory AlphaSeq set, Li et al. 2023, doi:10.1038/s41467-023-39022-2, as distributed in FLAb.